High-throughput results from PubChem BioAssay.
Most compounds without a hit are left out; they make up all but 1.8% or so of the library.
DENV2 CPE: protects cells from dengue virus 2 cytopathic effect. CPE inhibition, % at 9.99 µM. AID 651640. DENV2-infected cells, cytopathic effect rescue, plate reader. 350,000 compounds, 1.7% hits; in the data active = CPE inhibition above about 20%, passing the limit was not always enough; inconclusive = no clear call, values can overlap the other calls; tested in BHK-21 cells;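 note: 0% = median of neutral control wells and 100% = median of positive control wells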
E-selectin induc: E-selectin induction on HUVECs; P16581; HUVEC E-selectin immunofluorescence imaging; normalized: neutral wells 0, TNF-alpha wells 100; activation, % at 7.58 µM; 260,000 compounds, 0.37% hits; AID 686992;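 active = mean E-selectin-positive cell signal at least 10% of the positive control, reached in at least 60% of replicates, without over 20% cell loss; inconclusive = no rule given, readout overlaps actives, possibly toxicity-flagged; inactive = the rest, including those meeting only one limit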
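Test system: HUVEC; input: 3,000 HUVEC/well; measured by: immunofluorescence imaging; read-out: % PE-positive cells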
UUG fidelity: alters start codon recognition fidelity in yeast. S. cerevisiae UUG-firefly luciferase reporter, luminescence/redox ratio. activity score, % at 18.7 µM. 0.13% of 350,000 active. AID 602363;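 active = replicate mean at a twofold rise or more, about +100% in these data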;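 also: firefly luciferase made from a UUG start codon reports start codon fidelity; reporter light over untreated wells divided by growth signal over untreated wells; some hits fall short of that in this replicate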
Cneo AK release: Cryptococcus neoformans lysis via adenylate kinase release | 360,000 compounds, 0.2% hits | AID 651654 | C. neoformans lysis, adenylate kinase release luminescence, 4 h; normalised: neutral wells 0, clomiphene wells 100 | lysis activity, % at 15 µM;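 active = mean lysis activity across replicates of at least 80%, whatever share of replicates individually reach that level; inactive = mean lysis activity below 80%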
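Material: C. neoformans cells; Schedule: 4 h static compound exposure, 37 °C, read 1 h post-reagent; Measured by: adenylate kinase release luminescence; Read-out: signal increase indicating cell lysis; Controls: Clomiphene as positive lysis control.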
* marks the source's active call; other numbers are inactive results; ? = inconclusive; / = no result given.

SMILES | DENV2 CPE | E-selectin induc | UUG fidelity | Cneo AK release
COc1ccccc1S(=O)(=O)N1CC[C@H]2[C@H](CO)Nc3ccc(-c4ccc(F)cc4)cc3[C@H]21 | -24 | -1 | -14 | -12
O=C(NCCC1CCCCN1S(=O)(=O)c1ccccc1)C(=O)NCc1ccccn1 (stereo not given) | 92* | / | -6 | 1
Cc1ccc(C)c(S(=O)(=O)N2CCCCC2CCNC(=O)C(=O)NCCc2ccco2)c1 (stereo not given) | 1 | 62* | -8 | 5
O=C(NCc1ccccn1)C(=O)NCC1OCCN1S(=O)(=O)c1ccc(Br)cc1 (stereo not given) | 64* | 0 | -22 | 0
O=C(NCCC1CCCCN1S(=O)(=O)c1ccc(F)cc1)C(=O)NCc1ccccn1 (stereo not given) | ? | 0 | -12 | -1
Cc1ccc(C)c(S(=O)(=O)N2CCCC2CNC(=O)C(=O)NCCc2ccco2)c1 (stereo not given) | -1 | 0 | / | /
CC(=O)N(C)C[C@H]1Oc2cc(C#CC3CCCC3)ccc2S(=O)(=O)N([C@H](C)CO)C[C@H]1C | ? | 1 | -2 | 1
CS(=O)(=O)Nc1ccc2c(c1)[C@@H]1C[C@@H](CC(=O)NCc3ccccn3)O[C@H](CO)[C@@H]1O2 | -1 | 0 | / | 22
CCCNC(=O)N1C[C@H](O)COC[C@@H]2O[C@@H](CC(=O)N3CCN(C)CC3)CC[C@H]21 | 1 | 0 | / | 4
Cc1noc(C)c1NC(=O)N(C)C[C@@H]1Oc2c(NS(=O)(=O)c3ccc(Cl)cc3)cccc2C(=O)N([C@H](C)CO)C[C@H]1C | 3 | 0 | -7 | -2
C[C@@H]1CN([C@H](C)CO)C(=O)c2cccc(NC(=O)Nc3ccc(C(F)(F)F)cc3)c2O[C@@H]1CN(C)C(=O)Nc1ccc2c(c1)OCO2 | 41* | 0 | 10 | -1
C[C@@H]1CN([C@@H](C)CO)C(=O)c2cccc(NS(C)(=O)=O)c2O[C@H]1CN(C)C(=O)Nc1ccc(C(F)(F)F)cc1 | 79* | / | -1 | 7

2 of these compounds in a different format:
mol	DENV2 CPE	E-selectin induc	UUG fidelity	Cneo AK release
COc1ccccc1S(=O)(=O)N1CC[C@H]2[C@H](CO)Nc3ccc(-c4ccc(F)cc4)cc3[C@H]21	-24	-1	-14	-12
C[C@@H]1CN([C@@H](C)CO)C(=O)c2cccc(NS(C)(=O)=O)c2O[C@H]1CN(C)C(=O)Nc1ccc(C(F)(F)F)cc1	79*	/	-1	7

Of the compounds above, 2 have a furan ring, fused or not.
SMILES | DENV2 CPE | E-selectin induc | UUG fidelity | Cneo AK release
Cc1ccc(C)c(S(=O)(=O)N2CCCCC2CCNC(=O)C(=O)NCCc2ccco2)c1 (stereo not given) | 1 | 62* | -8 | 5
Cc1ccc(C)c(S(=O)(=O)N2CCCC2CNC(=O)C(=O)NCCc2ccco2)c1 (stereo not given) | -1 | 0 | / | /

Other structures.
SMILES | DENV2 CPE | E-selectin induc | UUG fidelity | Cneo AK release
C[C@H]1CN([C@@H](C)CO)C(=O)c2cccc(NC(=O)Nc3ccc(F)cc3)c2O[C@@H]1CN(C)C(=O)Nc1ccc(C(F)(F)F)cc1 | 57* | -15 | -6 | -3
C[C@H]1CN([C@@H](C)CO)C(=O)c2cccc(NC(=O)Nc3ccc(C(F)(F)F)cc3)c2O[C@@H]1CN(C)C(=O)Nc1ccc(F)cc1 | 0 | 0 | -1 | -12
C[C@H]1CN([C@@H](C)CO)C(=O)c2cccc(NC(=O)C3CCCCC3)c2O[C@H]1CN(C)C(=O)Nc1ccc(C(F)(F)F)cc1 | 27* | 0 | 3 | -1
C[C@@H]1CN([C@@H](C)CO)C(=O)c2cccc(NS(C)(=O)=O)c2O[C@@H]1CN(C)C(=O)Nc1ccc(C(F)(F)F)cc1 | / | / | -1 | 53
C[C@H](CO)N1C[C@H](C)[C@H](CN(C)C(=O)Nc2ccc3c(c2)OCO3)Oc2c(NC(=O)Nc3ccc(C(F)(F)F)cc3)cccc2C1=O | -5 | 0 | 19 | -4
C[C@@H]1CN([C@@H](C)CO)C(=O)c2cccc(NC(=O)C3CCCCC3)c2O[C@H]1CN(C)CC1CCCCC1 | 17 | 0 | 3 | 1
C[C@@H]1CN([C@H](C)CO)C(=O)c2cccc(NC(=O)Nc3ccc4c(c3)OCO4)c2O[C@H]1CN(C)C(=O)Nc1ccccc1 | 100* | 0 | 10 | -1
Cc1noc(C)c1NC(=O)N(C)C[C@@H]1Oc2c(NC(=O)Nc3ccc(C(F)(F)F)cc3)cccc2C(=O)N([C@H](C)CO)C[C@@H]1C | 10 | 0 | 17 | 43
Cc1noc(C)c1NC(=O)N(C)C[C@@H]1Oc2c(NC(=O)Nc3ccc(C(F)(F)F)cc3)cccc2C(=O)N([C@@H](C)CO)C[C@@H]1C | 32* | / | 9 | 0
C[C@@H]1CN([C@H](C)CO)C(=O)c2cccc(NC(=O)Nc3ccc4c(c3)OCO4)c2O[C@H]1CN(C)C(=O)Nc1ccc(C(F)(F)F)cc1 | 2 | 38* | 12 | -2
C[C@@H]1CN([C@H](C)CO)C(=O)c2cc(NS(=O)(=O)c3ccccc3)ccc2O[C@@H](C)CCCCO[C@H]1CN(C)S(=O)(=O)c1ccc(F)cc1 | 2 | 0 | -2 | 5
COC(=O)c1c(NC(=O)CC2Sc3ccc(C(F)(F)F)cc3NC2=O)sc(C)c1C (stereo not given) | 25* | / | / | /
COC(=O)c1c(NC(=O)CC2Nc3cc(C)c(C)cc3NC2=O)sc(C)c1C (stereo not given) | / | / | -14 | -2
COc1ccc(Nc2nc(-c3sc(N)nc3C)cs2)cc1 | / | / | -26 | -3
